Antibody variant affinities, Ab-91 heavy chain, assay 2

Values reported by Engelhart et al. 2022, doi:10.1038/s41597-022-01779-4 (FLAb copy).

Binding partner: SARS-CoV-2 spike HR2 peptide, sequence PDVDLGDISGINAS.

Ab-91 is the parent antibody, in scFv form: VL, then a 15-residue (Gly4Ser)3 linker, then VH. The light chain is unchanged in all variants.
VL: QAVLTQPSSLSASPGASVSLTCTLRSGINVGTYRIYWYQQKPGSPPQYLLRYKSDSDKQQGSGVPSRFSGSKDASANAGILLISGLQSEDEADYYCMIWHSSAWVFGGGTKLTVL
VH: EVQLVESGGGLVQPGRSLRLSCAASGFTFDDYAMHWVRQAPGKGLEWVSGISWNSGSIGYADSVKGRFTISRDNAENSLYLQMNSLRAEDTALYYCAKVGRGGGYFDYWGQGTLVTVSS

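The starting antibody came from a phage panning campaign against this peptide. In library AAYL51, one, two or three CDR residues were substituted; doubles and triples were drawn at random. The scFvs were displayed on barcoded MATa yeast, the peptide on MATalpha yeast. Binding brings cells together so that they mate, and sequencing counts the barcode pairs among the diploids. The ratio of observed to expected reads was calibrated, replicate by replicate, on BCL2-family standards whose Kd was known from biolayer interferometry. Mating was done three times.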

Changes read parent residue, position, new residue, counted from the first residue of the VH shown. All variants listed here change D30 of the VH, counted from its first residue. Kd is apparent (estimated from mating counts) and averaged on the log scale over replicates with a signal. Smaller is tighter. "no signal" marks a missing value. The strain was present, yet no cells mated with the target were sequenced in any replicate, which points to weak or no binding.

changes,Kd,seen in,signal with controls
D30W+H35E+I51G,no signal,0/3,0/9
D30P+S52K+G59R,250 µM,1/3,2/9
D30M+F106H,1.7 µM,1/3,0/9
D30I+S63L+F106W,no signal,0/3,0/9
D30S+D62M+S63H,280 nM,3/3,2/9
D30W+G50V+Y60W,no signal,0/3,0/9
F27K+D30W+I51A,no signal,0/3,0/9
D30I+N54L,no signal,0/3,4/9
D30F+S52K+A61T,no signal,0/3,0/9
F29R+D30T+F106I,no signal,0/3,0/9
D30W+V64W+V99D,no signal,0/3,0/9
T28K+F29P+D30A,3.7 µM,1/3,1/9
D30W+S57W,9.7 µM,1/3,1/9
D30Q+I51N+R101I,55 µM,2/3,1/9
D30A+Y60E+G104P,270 nM,3/3,3/9
D30S+G50R+S57G,180 µM,2/3,7/9
D30G+A33D,42 µM,3/3,6/9
D30G+D31A+G56H,13 nM,3/3,3/9
D30K+D62A+G100P,1.7 µM,3/3,4/9
D30W+D31A+D62P,100 nM,3/3,2/9
D30T,120 nM,3/3,5/9
D30R+M34F+Y105Q,46 µM,1/3,1/9
D30C+I58Y+R101P,580 nM,3/3,5/9
D30L+R101A+Y105C,11 µM,2/3,0/9
D30Q+N54W+Y60L,no signal,0/3,0/9
D30M+W53R+S55R,no signal,0/3,3/9
G26P+D30P+S57G,12 µM,1/3,2/9
D30W+I51N+V64H,no signal,0/3,0/9
G26N+D30P+H35N,99 µM,2/3,3/9
D30L+Y32D+G104E,no signal,0/3,1/9
F27D+D30N+I51M,93 µM,1/3,6/9
D30F+S52H+G104R,8.6 µM,1/3,3/9
G26N+D30P+S63E,140 nM,3/3,2/9
G26F+D30A+N54R,180 µM,1/3,4/9
D30A+D107I+Y108G,690 µM,1/3,0/9
F27L+D30Y+W53Y,1.6 µM,3/3,1/9
G26N+D30L+M34P,170 µM,1/3,3/9
D30K+N54V+G104K,no signal,0/3,3/9
D30A+V64H+Y108F,92 µM,3/3,6/9
D30H+G103F+G104L,no signal,0/3,1/9
D30C+G50S+K65C,2.1 µM,1/3,2/9
D30N+S63F+D107G,52 µM,2/3,7/9
D30L+V99I+Y105T,8.7 µM,1/3,2/9
D30F+Y32L+A33N,240 µM,1/3,0/9
D30Y+Y32D+I51L,2.7 µM,1/3,2/9
D30E+Y60K+A61P,no signal,0/3,0/9
D30A+G100A+G103D,no signal,0/3,0/9
T28D+D30I+N54S,5.0 µM,3/3,1/9
D30K+A61K+V64P,420 µM,3/3,5/9
D30V+Y32G+F106T,no signal,0/3,0/9
D30S+S55L+Y108E,110 nM,3/3,0/9
D30K+H35P+Y105T,22 µM,1/3,1/9
D30L+N54L+A61N,no signal,0/3,3/9
D30C+Y60P+G100S,no signal,0/3,1/9
D30S+V99E+R101N,no signal,0/3,0/9
D30Y+Y60H+D62G,190 µM,3/3,6/9
T28P+D30F+Y60H,2.5 µM,1/3,2/9
D30E+W53V+K65G,no signal,0/3,1/9

In this assay the parent's reference entry averaged 72 nM; its copy inside this library read 7.5 nM. As a blank, each scFv also met three strains without target: over library AAYL51, 21% of these pairings were detected, typically at 34 µM and seldom below 1.8 µM. For each scFv, signals with the empty controls are counted beside the result.